# How the values were obtained:
# MM.1S cells = experiment: Cytotoxicity (Cell Counting Kit-8) and Chou-Talalay synergy analysis, MM.1S; format: cell-based; conditions: 25 nM of each drug, 48 h
# NCI-H929 cells = conditions: 25 nM of each drug, 48 h
smiles,measurement,setting,value
COc1cccc2c1C(=O)c1c(O)c3c(c(O)c1C2=O)C[C@@](O)(C(=O)CO)C[C@@H]3O[C@H]1C[C@H](N)[C@H](O)[C@H](C)O1 [doxorubicin],cytotoxicity,MM.1S cells,minimal cytotoxicity
same,cytotoxicity,NCI-H929 cells,minimal cytotoxicity
